## Reported melting point values for industrial, environmental and drug-like chemicals

Source: data files of OPERA 2.9 (Mansouri et al.), github.com/kmansouri/OPERA.

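These are experimental values that the OPERA curators gathered from public databases to train and test their QSAR models. A listed value is a point estimate from one report or more. Method and conditions are not stated for these values. The measured form (salt, isomer or mixture) is not always the one drawn. Some entries may be limits or estimates that an upstream database listed as plain numbers.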

Melting points are in °C. Cells with "n/a" have no entry in this list. "via" names the databases from which the curators took the value.

{"smiles": "C[N+](C)=CCC(O)CC(=N)[O-].Cl", "stereo": "stereo unspecified", "melting point (°C)": "207.1", "via": "eChemPortal"}
{"smiles": "CCCCCCC(=O)CO", "name": "1-hydroxy-2-octanone", "melting point (°C)": "12.72", "via": "eChemPortal"}
{"smiles": "C=C(C)C(=O)OCCOCCOCCOCC", "name": "Ethyltriglycol methacrylate", "melting point (°C)": "-98", "via": "eChemPortal"}
{"smiles": "Clc1nc(-c2cccnc2)nc2sc3c(c12)CCCC3", "melting point (°C)": "138", "via": "OCHEM"}
{"smiles": "S=c1[nH]nc(-c2cccs2)o1", "name": "5-(Thiophen-2-yl)-1,3,4-oxadiazole-2(3H)-thione", "melting point (°C)": "163", "via": "OCHEM"}
{"smiles": "CN(C)C(N)=S", "name": "1,1-Dimethyl-2-thiourea", "melting point (°C)": "145", "via": "OCHEM"}
{"smiles": "O=C(O)c1n[nH]c2ccc([N+](=O)[O-])cc12", "name": "5-nitro-1H-indazole-3-carboxylic Acid", "melting point (°C)": "254", "via": "OCHEM"}
{"smiles": "Clc1ccc2c(Cl)ncnc2c1", "name": "4,7-Dichloroquinazoline", "melting point (°C)": "137", "via": "OCHEM"}
{"smiles": "O=C(O)CSc1ccccc1Cl", "name": "o-Chlorophenyl thioacetic acid", "melting point (°C)": "116", "via": "OCHEM"}
{"smiles": "O=C(O)Cc1ccc(-n2cccn2)cc1", "name": "[4-(1H-Pyrazol-1-yl)phenyl]acetic acid", "melting point (°C)": "131", "via": "OCHEM"}
{"smiles": "O=C1C(=O)N(Cc2ccccc2)c2ccccc21", "name": "1-Benzyl-1H-indole-2,3-dione", "melting point (°C)": "93", "via": "OCHEM"}
{"smiles": "Cc1c(F)ccc(C(=O)Cl)c1F", "name": "2,4-Difluoro-3-methylbenzoyl chloride", "melting point (°C)": "36.5", "via": "OCHEM"}
{"smiles": "N#CCC(=O)c1c(Cl)cccc1Cl", "name": "3-(2,6-Dichlorophenyl)-3-oxopropanenitrile", "melting point (°C)": "64", "via": "OCHEM"}
{"smiles": "O=c1c(O[C@@H]2O[C@H]([C@H](O)CO)[C@H](O)[C@H]2O)c(-c2ccc(O)c(O)c2)oc2cc(O)cc(O)c12", "name": "Isoquercitrin", "melting point (°C)": "226", "via": "OCHEM"}
{"smiles": "CCCNS(=O)(=O)c1cccc(C(=O)O)c1", "name": "3-Propylsulfamoyl-benzoic acid", "melting point (°C)": "200", "via": "OCHEM"}
{"smiles": "CC1=NN(c2ccccc2)C(=O)C1C(=O)c1ccccc1", "stereo": "stereo unspecified", "name": "4-Benzoyl-3-methyl-1-phenylpyrazol-5-one", "melting point (°C)": "91", "via": "OCHEM"}
{"smiles": "NNc1ccc([N+](=O)[O-])cn1", "name": "2-hydrazino-5-nitropyridine", "melting point (°C)": "195", "via": "OCHEM"}
{"smiles": "CCCCCCCCCCCCCCCC[N+](C)(C)Cc1ccccc1.[Cl-]", "name": "Benzylhexadecyldimethylammonium chloride", "melting point (°C)": "112.5", "via": "eChemPortal"}
{"smiles": "CCCc1ccc(O)c(OC)c1", "name": "2-Methoxy-4-propylphenol", "melting point (°C)": "-6", "via": "eChemPortal"}
{"smiles": "Nc1c(OCCCCCCO)cc(O)c2c1C(=O)c1ccccc1C2=O", "melting point (°C)": "157", "via": "eChemPortal"}
{"smiles": "COc1ccc(C=C2N=C(c3ccc(C4=NC(=Cc5ccc(OC)cc5)C(=O)O4)cc3)OC2=O)cc1", "melting point (°C)": "296", "via": "eChemPortal"}
{"smiles": "COC(=O)C(=CN(C)C)n1ccnn1", "melting point (°C)": "120", "via": "eChemPortal"}
{"smiles": "O=C1c2c(Cl)c(Cl)c(Cl)c(Cl)c2C2=Nc3cccc4cccc(c34)N12", "name": "C.I. Solvent Red 135", "melting point (°C)": "309", "via": "eChemPortal"}
{"smiles": "O=Cc1csc(-c2ccc(Cl)cc2)n1", "name": "2-(4-Chlorophenyl)-1,3-thiazole-4-carbaldehyde", "melting point (°C)": "125", "via": "OCHEM"}
{"smiles": "Fc1ccc(Cn2cncn2)cc1", "name": "1-(4-Fluorobenzyl)-1H-1,2,4-triazole", "melting point (°C)": "64", "via": "OCHEM"}
{"smiles": "CC(C)(O)c1ccccc1CC[C@H](O)c1cccc(C=Cc2ccc3ccc(Cl)cc3n2)c1", "melting point (°C)": "122.3", "via": "eChemPortal"}
{"smiles": "NNc1ccc(-c2ccccc2)nn1", "name": "3-hydrazino-6-phenylpyridazine", "melting point (°C)": "145", "via": "OCHEM"}
{"smiles": "CCCCCCOC1CCC(C)(C)O1", "stereo": "stereo unspecified", "name": "Furan, 5-(hexyloxy)tetrahydro-2,2-dimethyl-", "melting point (°C)": "-86", "via": "eChemPortal"}
{"smiles": "Cc1coc2ccc(O)cc12", "name": "3-Methyl-1-benzofuran-5-ol", "melting point (°C)": "92.5", "via": "eChemPortal"}
{"smiles": "Nc1n[nH]c(-c2ccc(F)cc2)n1", "name": "5-(4-fluorophenyl)-4H-1,2,4-triazol-3-amine", "melting point (°C)": "225", "via": "OCHEM"}
{"smiles": "O=c1nc(Cc2ccccc2)[nH]c2ccccc12", "name": "Glycosminine", "melting point (°C)": "255", "via": "PubChem"}
{"smiles": "CCCCCCCC[C@@H](O)CCCCCCCCC(=O)O", "name": "(10R)-10-Hydroxystearic acid", "melting point (°C)": "85.9", "via": "eChemPortal"}
{"smiles": "O=C(c1ccc(Cl)cc1Cl)N1CCNCC1", "name": "1-(2,4-dichlorobenzoyl)piperazine", "melting point (°C)": "109", "via": "OCHEM"}

The 4 highest values of melting point among the entries above:

| compound | name | melting point (°C) | via |
|---|---|---|---|
| O=C1c2c(Cl)c(Cl)c(Cl)c(Cl)c2C2=Nc3cccc4cccc(c34)N12 | C.I. Solvent Red 135 | 309 | eChemPortal |
| COc1ccc(C=C2N=C(c3ccc(C4=NC(=Cc5ccc(OC)cc5)C(=O)O4)cc3)OC2=O)cc1 | n/a | 296 | eChemPortal |
| O=c1nc(Cc2ccccc2)[nH]c2ccccc12 | Glycosminine | 255 | PubChem |
| O=C(O)c1n[nH]c2ccc([N+](=O)[O-])cc12 | 5-nitro-1H-indazole-3-carboxylic Acid | 254 | OCHEM |